Data published in patent publication US4774345A, “Amine-complexed zinc salts of organic diacids” (Engelhard Corporation, priority 1986, dated 1988).

Experiments:
[1] = water
[2] = Electrochemical testing (Tafel Plot), corrosion current, corrosion potential and pH of simulated acid rain saturated with pigment

## Zinc Dibasate Diethylamine [Compound 9]
[1]
  Solubility Description: PINS (key: PINS: practically insoluble (<.1 g/100 cc H2 O); SS: slightly soluble (.1 to 1 g/100 cc H2 O); MS: moderately soluble)

## Zinc Dibasate Dimethylamine [Compound 21]
[2]
  pH: 6.85

## Zinc Dibasate Piperidine [Compound 24]
[2]
  pH: 7.1
